In patent publication US20050026270A1, “Stable subtilin and methods of manufacture” (University of Maryland, priority 1999, published 2005):

Assay: Stability of subtilin: activity retained after storage or exposure to light
Settings: 5 days of storage at 4° C.

Substance: subtilin [subtilin prepared according to Jensen and Hirschman]
- activity remaining after storage: less than 5%
